How the values were obtained:
fibrinogen = fibrinogen (UniProt P02671)
protein C = protein C (UniProt P04070)

thrombin
clotting time (turbidity of fibrin clot formation) (fibrinogen): Thrombin rapidly triggered the fibrin formation within 5 minutes | specificity value (kcat/km) of protein C cleavage by thrombin with exogenous full-length thrombomodulin added (protein C): a specificity value of 220 mM^-1s^-1

From US20180127735A1
